The test addresses Human Cot (Homo sapiens (Human), UniProt P41279). In words: High Throughput Cot Biochemical Assay.
The mark [1] stands for this setting: IC50 HTRF, Cot HTRF (TR-FRET) biochemical assay.

By UniProt entry, the sequences of proteins in these tests, tags left out. Residues count along the entry.
UniProt P41279, 30-397: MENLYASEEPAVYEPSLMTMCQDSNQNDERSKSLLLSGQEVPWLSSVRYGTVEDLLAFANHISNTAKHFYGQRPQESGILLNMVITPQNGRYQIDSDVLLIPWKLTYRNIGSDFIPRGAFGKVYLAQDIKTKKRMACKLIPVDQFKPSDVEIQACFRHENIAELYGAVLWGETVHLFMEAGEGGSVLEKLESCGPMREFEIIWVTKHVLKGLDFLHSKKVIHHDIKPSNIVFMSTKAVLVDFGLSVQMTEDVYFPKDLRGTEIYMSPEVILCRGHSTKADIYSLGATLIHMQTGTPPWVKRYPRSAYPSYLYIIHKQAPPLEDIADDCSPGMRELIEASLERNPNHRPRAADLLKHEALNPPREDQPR

Read-outs that look alike come from different tables or passages of the source.

Turning to `CC(C)(C)N1CCC(n2cc([C@@H](Nc3cc(Cl)c4ncc(C#N)c(Nc5ccc(F)c(Cl)c5)c4c3)c3cccc4c3CCN4)nn2)CC1` [Example 60, (S)-6-(((1-(1-(tert-butyl)piperidin-4-yl)-1H-1,2,3-triazol-4-yl)(indolin-4-yl)methyl)amino)-8-chloro-4-((3-chloro-4-fluorophenyl)amino)quinoline-3-carbonitrile], half-maximal inhibition under setting [1] (IC50) was put at 12 nM. Consider `N#Cc1cnc2c(Cl)cc(N[C@H](c3c[nH]nn3)c3cccnc3Cl)cc2c1Nc1cnc(F)c(F)c1` [Example 161, (S)-8-chloro-6-(((2-chloropyridin-3-yl)(1H-1,2,3-triazol-4-yl)methyl)amino)-4-((5,6-difluoropyridin-3-yl)amino)quinoline-3-carbonitrile], for which the IC50 – broadly, the concentration that gives 50% inhibition – under setting [1] amounted to 12 nM. `COc1ncccc1[C@H](Nc1cc(Cl)c2ncc(C#N)c(NCC(C)(C)C)c2c1)c1cn(C2(C(F)(F)F)CC2)nn1` [Example 782, (S)-8-chloro-6-(((2-methoxypyridin-3-yl)(1-(1-(trifluoromethyl)cyclopropyl)-1H-1,2,3-triazol-4-yl)methyl)amino)-4-(neopentylamino)quinoline-3-carbonitrile] gave an IC50 under setting [1] of 23 nM. With `CC(C)(C)CNc1c(C#N)cnc2c(Br)cc(N[C@H](c3cn(C4(C(F)(F)F)CC4)nn3)c3cccc4ncsc34)cc12` [Example 439, (S)-6-((benzo[d]thiazol-7-yl(1-(1-(trifluoromethyl)cyclopropyl)-1H-1,2,3-triazol-4-yl)methyl)amino)-8-bromo-4-(neopentylamino)quinoline-3-carbonitrile], the midpoint of inhibition under setting [1], the IC50, lay at 13 nM. With `Cc1nc(F)ccc1[C@H](Nc1cc(Cl)c2ncc(C#N)c(NCC(C)(C)C)c2c1)c1cn(CC(C)(C)C(F)(F)F)nn1` [Example 755], the IC50 (read-out: IC50 HTRF, Cot HTRF (TR-FRET) biochemical assay) worked out at 25 nM.

Take `CC(C)(C)CNc1c(C#N)cnc2c(Cl)cc(N[C@H](c3nnn(C4(C(F)F)CC4)c3F)c3cccc4ncccc34)cc12` [Example 962, (S)-8-chloro-6-(((1-(1-(difluoromethyl)cyclopropyl)-5-fluoro-1H-1,2,3-triazol-4-yl)(quinolin-5-yl)methyl)amino)-4-(neopentylamino)quinoline-3-carbonitrile]: the IC50 (IC50 HTRF, Cot HTRF (TR-FRET KinEASE) biochemical assay, 400 μM ATP) stood at 13 nM.

Under setting [1], `Cn1ncc2c([C@H](Nc3cc(Cl)c4ncc(C#N)c(NCC(C)(C)C)c4c3)c3cn(C4(C(F)(F)F)CC4)nn3)cccc21` [Example 543, (S)-8-chloro-6-(((1-methyl-1H-indazol-4-yl)(1-(1-(trifluoromethyl)cyclopropyl)-1H-1,2,3-triazol-4-yl)methyl)amino)-4-(neopentylamino)quinoline-3-carbonitrile] had an IC50 of 13 nM. For `CC(C)(C)CNc1c(C#N)cnc2c(Cl)cc(N[C@H](c3cn(C4(C(F)(F)F)CC4)nn3)c3ccc(Cl)c4cnccc34)cc12` [Example 651, (S)-8-chloro-6-(((8-chloroisoquinolin-5-yl)(1-(1-(trifluoromethyl)cyclopropyl)-1H-1,2,3-triazol-4-yl)methyl)amino)-4-(neopentylamino)quinoline-3-carbonitrile], the IC50 under setting [1] worked out at 14 nM.

`CC(C)(C)CNc1c(C#N)cnc2c(Cl)cc(N[C@H](c3cn(C4(C(F)(F)F)CC4)nn3)c3ccc(F)c4cnccc34)cc12` [Example 616, (S)-8-chloro-6-(((8-fluoroisoquinolin-5-yl)(1-(1-(trifluoromethyl)cyclopropyl)-1H-1,2,3-triazol-4-yl)methyl)amino)-4-(neopentylamino)quinoline-3-carbonitrile] yielded an IC50 under setting [1] of 12 nM.

`CCN1CCC(n2cc([C@@H](Nc3cc(Cl)c4ncc(C#N)c(Nc5ccc(F)c(Cl)c5)c4c3)c3cccs3)nn2)CC1` [Example 380, (R)-8-chloro-4-((3-chloro-4-fluoro-phenyl)amino)-6-(((1-(1-ethylpiperidin-4-yl)-1H-1,2,3-triazol-4-yl)(thiophen-2-yl)methyl)amino)quinoline-3-carbonitrile]: the IC50 under setting [1] was 14 nM. The same measure, in the same setting: the result for `CC(C)n1cc([C@@H](Nc2cc(Cl)c3ncc(C#N)c(Nc4ccc(F)c(Cl)c4)c3c2)c2csc(N3CCOCC3)n2)nn1` [Example 301, (S)-8-chloro-4-((3-chloro-4-fluoro-phenyl)amino)-6-(((1-isopropyl-1H-1,2,3-triazol-4-yl)(2-morpholinothiazol-4-yl)methyl)amino)quinoline-3-carbonitrile] reads 14 nM. The molecule `Cc1ccc([C@H](Nc2cc(Cl)c3ncc(C#N)c(NCC(C)(C)C)c3c2)c2cn(C3(C(F)(F)F)CC3)nn2)cn1` [Example 795, (S)-8-chloro-6-(((6-methylpyridin-3-yl)(1-(1-(trifluoromethyl)cyclopropyl)-1H-1,2,3-triazol-4-yl)methyl)amino)-4-(neopentylamino)quinoline-3-carbonitrile] yielded an IC50 under setting [1] of 34 nM. `Cc1nc(F)ccc1[C@H](Nc1cc(Cl)c2ncc(C#N)c(NCC(C)(C)CO)c2c1)c1cn(C2(C(F)F)CC2)nn1` [Example 746, (S)-8-chloro-6-(((1-(1-(difluoromethyl)cyclopropyl)-1H-1,2,3-triazol-4-yl)(6-fluoro-2-methylpyridin-3-yl)methyl)amino)-4-((3-hydroxy-2,2-dimethylpropyl)amino)quinoline-3-carbonitrile] registered a concentration for half-maximal inhibition (IC50) under setting [1] of 13 nM. On to `COc1nccc2c([C@H](Nc3cc(Cl)c4ncc(C#N)c(NCC(C)(C)C)c4c3)c3cn([C@@H](C)CF)nn3)cccc12` [Example 932, 8-chloro-6-(((S)-(1-((S)-1-fluoropropan-2-yl)-1H-1,2,3-triazol-4-yl)(1-methoxylsoquinolin-5-yl)methyl)amino)-4-(neopentylamino)quinoline-3-carbonitrile], for which the IC50 (read-out: IC50 HTRF, Cot HTRF (TR-FRET KinEASE) biochemical assay, 400 μM ATP) came to 14 nM. With `CC(C)(C)N1CCC(n2cc([C@@H](Nc3cc(Cl)c4ncc(C#N)c(Nc5ccc(F)c(Cl)c5)c4c3)c3cocn3)nn2)CC1` [Example 348, (S)-6-(((1-(1-(tert-butyl)piperidin-4-yl)-1H-1,2,3-triazol-4-yl)(oxazol-4-yl)methyl)amino)-8-chloro-4-((3-chloro-4-fluorophenyl)amino)-quinoline-3-carbonitrile], it took 13 nM to reach half-maximal inhibition under setting [1] (IC50). For `Cc1nc(Cl)ccc1[C@H](Nc1cc(Cl)c2ncc(C#N)c(Nc3cnc(F)c(F)c3)c2c1)c1c[nH]nn1` [Example 169, (S)-8-chloro-6-(((6-chloro-2-methylpyridin-3-yl)(1H-1,2,3-triazol-4-yl)methyl)amino)-4-((5,6-difluoropyridin-3-yl)amino)quinoline-3-carbonitrile], under setting [1], the midpoint of inhibition, the IC50, lay at 14 nM. Under setting [1], `CC(C)(C)CNc1c(C#N)cnc2c(Cl)cc(N[C@H](c3cn(C4(C(F)(F)F)CC4)nn3)c3cccn4cncc34)cc12` [Example 599, (S)-8-chloro-6-((imidazo[1,5-a]pyridin-8-yl(1-(1-(trifluoromethyl)cyclopropyl)-1H-1,2,3-triazol-4-yl)methyl)amino)-4-(neopentylamino)quinoline-3-carbonitrile] gave an IC50 of 13 nM. On to `CCN1CCC(n2cc([C@@H](Nc3cc(Cl)c4ncc(C#N)c(Nc5ccc(F)c(Cl)c5)c4c3)c3ccc(Cl)s3)nn2)CC1` [Example 382, (R)-8-chloro-4-((3-chloro-4-fluoro-phenyl)amino)-6-(((5-chlorothiophen-2-yl)(1-(1-ethylpiperidin-4-yl)-1H-1,2,3-triazol-4-yl)methyl)amino)quinoline-3-carbonitrile], for which, under setting [1], half-maximal inhibition (IC50) required 14 nM.

Values taken from US11066414B2, “Cot modulators and methods of use thereof” (Gilead Sciences, Inc., priority 2015, dated 2021).
